In US20230391826A1, “COMPOSITIONS AND METHODS FOR TREATING DISEASES” (Sanford Burnham Prebys Medical Discovery Institute, priority 2020, published 2023) one finds solubility data, which are given here for 1 compound.

≈ marks a conversion by molar mass, not a printed value. Read-outs that look alike come from different tables or passages of the source. Some results are limits rather than exact numbers.

The nature of the data set: Peptide solubility in PBS/H2O/DMSO. Format: physicochemical. The procedure: Peptide identity and purity are documented by mass spectrometry and high-performance liquid chromatography (HPLC). The peptide solubility values are determined. Concentrated peptide stocks are prepared in DMSO or H2O and stored frozen at −80° C.

A word on the solubility: it is how much of the substance goes into solution per volume. On to `CC(C)C[C@H](NC(=O)[C@H](Cc1c[nH]c2ccccc12)NC(=O)[C@H](C)NC(=O)CNC(=O)[C@@H](N)CSCC(N)=O)C(=O)N[C@@H](C)C(=O)N[C@@H](Cc1ccc(O)cc1)C(=O)N1CCC[C@H]1C(=O)N[C@@H](CC(=O)O)C(=O)N[C@@H](CO)C(=O)N[C@H](C(=O)N1CCC[C@H]1C(=O)N[C@@H](Cc1ccc(O)cc1)C(=O)N[C@@H](CCCNC(=N)N)C(=O)N1CCC[C@H]1C(=O)N[C@@H](CCCCNC(=O)CCCC[C@@H]1SC[C@@H]2NC(=O)N[C@@H]21)C(=O)O)C(C)C` [compound 10], for which the solubility is 10000 µg/mL (≈ 4750 µM) (DMSO, Table 4, third of PBS/H20/DMSO, read-out: Solubility in DMSO); 10000 µg/mL (≈ 4750 µM) (DMSO, third of PBS/H2O/DMSO, read-out: Solubility in DMSO); 5000 µg/mL (≈ 2370 µM) (H2O, second of PBS/H2O/DMSO, read-out: Solubility in H2O); less than 100 µg/mL (PBS, Table 4, first of PBS/H20/DMSO, read-out: Solubility in PBS); less than 100 µg/mL (PBS, first of PBS/H2O/DMSO, read-out: Solubility in PBS); 5000 µg/mL (≈ 2370 µM) (water, Table 4, second of PBS/H20/DMSO, read-out: Solubility in H20).
